Measurements taken from PubChem BioAssay AID624171 (National Center for Advancing Translational Sciences (NCATS), 2012).
This is a selection; strong and weak results do not stand in their true shares. Activity calls are given as the source filed them. Calls follow the shape of the dose curve; as a rule, active = well fitted activation curve with a large enough effect; inconclusive = small, poorly fitted or top-dose-only effect; inactive = flat fitted curve, though single readings scatter.

Experiment: qHTS of Nrf2 Activators; also: % of control where 0% means no effect; nearly all actives have a fitted effect of over 65% in size
Conditions: AREc32 ARE-luciferase reporter (MCF7-derived line), luminescence, 24 h; at 46.1 µM (top of the series)
Description: Many diseases have some form of oxidative stress injury and ties to inflammation, causing a host of problems for the patient. The antioxidant response element (ARE) plays an important role in alleviating the harmful effects of oxidative stress. The antioxidant response element (ARE) is a transcriptional regulatory element involved in the activation of genes coding for a number of antioxidant proteins and detoxifying enzymes. These enzymes work in concert to protect tissues from oxidative insults and chemical toxicities in human hepatocytes and immune cells. The protective effects of ARE activation are primarily triggered through Nrf2 (NF-E2-related factor) binding to and activating AREs. It is known that Nrf2 controls the production of over 250 antioxidant and detoxification proteins (Hu et al., 2006), thereby protecting tissues by increasing cellular antioxidant content and suppressing inflammatory signaling pathways. The transcription factor Nrf2 is a central link between oxidative chemicals, such as phenolic antioxidants and electrophilic compounds, and the activation of ARE. Nrf2 levels are constitutively low as a consequence of its interaction with Keap1, which targets its degradation (Zipper and Mulcahy, 2002). Electrophiles react with key cysteine residues in Keap1, releasing Nrf2 and allowing its translocation to the nucleus. Once within the nucleus, Nrf2 complexes with coactivators such as p300, and binds to the AREs to induce gene transcription of cytoprotective enzymes, resulting in the prevention of toxicity. Activation of Nrf2 protects tissues by increasing cellular antioxidant content and suppressing inflammatory signaling pathways. Identifying novel and potent Nrf2 activators by using the AREc32 cell line to detect ARE activation by small molecules will lead to the identification and development of probes to study protective pathways in multiple tissues. These specific probes are essential to study the ARE pathway, and eventually to determine whether this pathway does activate genes that could protect against a host of diseases, including cardiovascular diseases, obesity, diabetes, Alzheimer's, and Parkinson's disease.
This project's aim is to identify novel and potent Nrf2 activators by using the AREc32 cell line to detect ARE activation by small molecules, which will lead to the identification and development of probes to study the ARE pathway.
NIH Chemical Genomics Center [NCGC]
NIH Molecular Libraries Probe Centers Network [MLPCN]
Assay Submitter (PI): Curtis Klaassen, University of Kansas Medical Center
5 uL of 1000 cells/well of AREc32_Fluc cells are seeded into 1536-well plate in OPTI-MEM medium with 5% FBS. The plates are incubated overnight at 37 deg C with 5% CO2. Then through pin tool transfer, 23 nL of compounds are added to each well before a 24 hr incubation at 37 deg C with 5% CO2. After the addition of 2.5 uL of Steady-Glo. the plates are kept at RT for 30 min, before they are read on the ViewLux.

| Structure (SMILES) | activation |
| --- | --- |
| CC1=NCCc2c1[nH]c1ccccc21.O=[N+]([O-])c1cc([N+](=O)[O-])c(O)c([N+](=O)[O-])c1 | inactive: 2.21% |
| Cc1ccc(C)c(NP(C)(=O)Oc2ccccc2)c1 (centres undefined) | inactive: 0.41% |
| CP(=O)(Nc1cccc(Br)c1)Oc1ccccc1 (centres undefined) | inactive: 0.16% |
| Cc1cc(C)cc(OP(C)(=O)Nc2ccccn2)c1 (centres undefined) | inactive: -0.488% |
| COc1ccccc1OP(C)(=O)Nc1cccc(Br)c1 (centres undefined) | inactive: 0.259% |
| CCOC(=O)c1ccc(NP(C)(=O)Oc2cc(C)cc(C)c2)cc1 (centres undefined) | inactive: -0.0208% |
| Cc1cc(C)cc(OP(C)(=O)Nc2ccc(C)cc2C)c1 (centres undefined) | inactive: -0.537% |
| O=[N+]([O-])c1cc([N+](=O)[O-])c(-c2cnn(-c3ccccc3)c2)c([N+](=O)[O-])c1 | inactive: -1.6% |
| Cc1nc2ccc3ccccc3c2s1.O=[N+]([O-])c1cc([N+](=O)[O-])c(O)c([N+](=O)[O-])c1 | inactive: 5.74% |
| O=[N+]([O-])c1cc([N+](=O)[O-])c(-n2nnc3ccccc32)c([N+](=O)[O-])c1 | inactive: 0.0727% |
| CN(Cc1cccnc1)C(=O)COc1ccc(Cl)c(Cl)c1.O=[N+]([O-])c1cc([N+](=O)[O-])c(O)c([N+](=O)[O-])c1 | inactive: 1.24% |
| CN1CCCCC1COC(=O)C1(O)c2ccccc2CCc2ccccc21 (centres undefined) | inactive: 3.66% |
| COc1ccccc1OP(C)(=O)Nc1c(C)cccc1C (centres undefined) | inactive: 0.389% |
| CP(=O)(Nc1ccc(SC(F)(F)F)cc1)Oc1ccccc1 (centres undefined) | inactive: 0.514% |
| CCCOc1ccc(NP(C)(=O)Oc2ccc(Cl)cc2)cc1 (centres undefined) | inactive: 0.597% |
| O=[N+]([O-])c1cc([N+](=O)[O-])c(Nc2nnnn2CCO)c([N+](=O)[O-])c1 | inactive: 1.31% |
| CC1=C2N=C(C=C3N=C(C(C)=C4[N-][C@@](C)([C@@H]5N=C1[C@](C)(CCC(=O)NC[C@@H](C)OP(=O)([O-])O[C@H]1[C@@H](O)[C@@H](n6cnc7cc(C)c(C)cc76)O[C@@H]1CO)[C@H]5CC(N)=O)[C@@](C)(CC(N)=O)[C@@H]4CCC(N)=O)[C@@](C)(CC(N)=O)[C@@H]3CCC(N)=O)C(C)(C)[C@@H]2CCC(N)=O.[C-]#N.[Co+3] | inactive: 0.19% |
| CP(=S)(Nn1cnnc1)Oc1ccccc1 (centres undefined) | inactive: 0.295% |
| CP(=O)(Nc1ccccc1Br)Oc1ccccc1 (centres undefined) | inactive: -0.407% |
| COc1ccccc1OP(C)(=O)Nc1ccccc1 (centres undefined) | inactive: 0.124% |
| O=[N+]([O-])c1cc([N+](=O)[O-])c(O)c([N+](=O)[O-])c1.c1ccc(Oc2ccncc2)cc1 | inactive: -0.0827% |
| CCOC(=O)c1ccc(NP(C)(=O)Oc2ccc(OC)cc2)cc1 (centres undefined) | inactive: 0.0535% |
| CCOP(C)(=S)SCC(=O)NC(C)C(=O)O (centres undefined) | inactive: 0.0918% |

| Structure (SMILES) | activation |
| --- | --- |
| CP(=O)(Nc1ccccn1)Oc1ccc(Cl)cc1 (centres undefined) | inactive: 0.285% |
| CP(=O)(Oc1ccccc1)OC(c1ccccc1)C(F)(F)F (centres undefined) | inactive: 0.25% |
| CP(=O)(Nc1ccc(SC(F)(F)F)cc1)Oc1ccc(Cl)cc1 (centres undefined) | inactive: 0.0827% |
| Cc1cccc(C)c1OP(C)(=O)Nc1ccc(SC(F)(F)F)cc1 (centres undefined) | inactive: 0.116% |
| Cc1cc(C)cc(OP(C)(=O)Nc2ccc(SC(F)(F)F)cc2)c1 (centres undefined) | inactive: 1.84% |
| CCc1ccc(OP(C)(=O)N2CCN(c3ccc([N+](=O)[O-])cc3)CC2)cc1 (centres undefined) | inactive: 3.05% |
| CP(=O)(NC(=O)Nc1ccccc1)Oc1ccccc1 (centres undefined) | inactive: -0.133% |
| COc1ccccc1-c1ccccn1.O=[N+]([O-])c1cc([N+](=O)[O-])c(O)c([N+](=O)[O-])c1 | inactive: 0.0588% |
| CCN(CC)CCCOC(=O)C(O)(c1ccccc1)c1ccccc1 | inactive: -0.599% |
| Cc1ccc(NP(C)(=O)Oc2ccccc2)c(C)c1 (centres undefined) | inactive: 1.86% |
| COc1ccccc1OP(C)(=O)Nc1ccc(C)cc1 (centres undefined) | inactive: 0.238% |
| CCOC(=O)c1ccc(NP(C)(=O)Oc2ccccc2)cc1 (centres undefined) | inactive: -0.263% |
| Cc1cc(C)cc(OP(C)(N)=O)c1 (centres undefined) | inactive: -0.818% |
| COc1ccc(OP(C)(=O)Nc2cccc(F)c2)cc1 (centres undefined) | inactive: 0.265% |
| COc1ccccc1OP(C)(=O)Nc1cc(Cl)ccc1C (centres undefined) | inactive: -0.613% |
| O=[N+]([O-])c1cc([N+](=O)[O-])c(Nc2cccnc2)c([N+](=O)[O-])c1 | inactive: 15.1% |
| O=[N+]([O-])c1ccc2c(c1)C=Nc1ccccc1O2 | inactive: 12% |
| Cc1cccc(C)c1OP(C)(N)=O (centres undefined) | inactive: -0.0432% |
| CC(C)(C)c1ccc(OP(C)(=O)Nc2ccc(SC(F)(F)F)cc2)cc1 (centres undefined) | inactive: -1.44% |
| CP(=O)(OCCOc1ccccc1)OCCOc1ccccc1 | inactive: -0.208% |
| CCCCCCCCCCCCCCCC1C[N+](C)(C)CCOP(C)(=O)O1 (centres undefined) | inactive: -0.175% |
| CP(=O)(Nc1ccc(Cl)cc1Cl)Oc1ccccc1 (centres undefined) | inactive: 3.96% |
| Cc1cc(C)cc(OP(C)(=O)Nc2cccc(C(F)(F)F)c2)c1 (centres undefined) | inactive: 2.71% |

| Structure (SMILES) | activation |
| --- | --- |
| COc1ccccc1OP(C)(=O)Nc1ccc(C)c(C)c1 (centres undefined) | inactive: 0.324% |
| COc1ccc(OP(C)(=O)Nc2ccccc2Br)cc1 (centres undefined) | inactive: -0.976% |
| O=[N+]([O-])c1cc([N+](=O)[O-])c(Nc2ccccn2)c([N+](=O)[O-])c1 | inactive: -2.85% |
| Cc1c(NP(C)(=O)Oc2ccc(C(C)C)cc2)c(=O)n(-c2ccccc2)n1C (centres undefined) | inactive: 0.263% |
| COc1ccccc1OP(C)(=O)Nc1ccc(C)cc1C (centres undefined) | inactive: -0.366% |
| CP(=O)(Nc1ccccn1)Oc1ccccc1 (centres undefined) | inactive: -0.178% |
| CCc1ccc(OP(C)(=O)O)cc1 | inactive: 0.113% |
| COc1ccccc1OP(C)(=O)Nc1ccc(Br)cc1 (centres undefined) | inactive: 0.156% |
| COc1ccc(OP(C)(=O)Nc2ccccn2)cc1 (centres undefined) | inactive: -1.14% |
| CN(C)CCOC(=O)C(O)(c1ccccc1)C1CCCC1 (centres undefined) | inactive: 0.0093% |
| CC(C)(C)c1ccc(OP(C)(=O)O)cc1 | inactive: -0.691% |
| COc1ccccc1OP(C)(=O)Nc1ccccc1Br (centres undefined) | inactive: -0.378% |
| CP(=O)(Nc1ccc(Cl)cc1)Oc1ccc(F)cc1 (centres undefined) | inactive: 0.734% |
| CN(C)C(=O)c1c([N+](=O)[O-])cc([N+](=O)[O-])cc1[N+](=O)[O-] | inactive: -3.38% |
| COc1ccc(OP(C)(=O)Nc2ccc(Br)cc2)cc1 (centres undefined) | inactive: 3.74% |
| CCN(CC)CC(O)COC(=O)C(O)(c1ccccc1)C1CCCCC1 (centres undefined) | inactive: 0.253% |
| O=C(OCCCN1CCCC1)C(O)(c1ccccc1)C1CCCCC1 (centres undefined) | inactive: -0.359% |
| COc1ccccc1OP(C)(=O)Nc1c(C)n(C)n(-c2ccccc2)c1=O (centres undefined) | inactive: -0.751% |
| CCc1ccc(OP(C)(=O)Nc2cccnc2)cc1 (centres undefined) | inactive: 0.712% |
| CP(=O)(Oc1ccccc1)N1CCOC1=O (centres undefined) | inactive: -0.764% |
| Nc1ccc2c(ccc3cccnc32)n1.O=[N+]([O-])c1cc([N+](=O)[O-])c(O)c([N+](=O)[O-])c1 | inactive: 11.1% |
| CCOC(=O)c1ccc(NP(C)(=O)Oc2ccc(Cl)cc2)cc1 (centres undefined) | inactive: 0.444% |
| CP(=O)(OC12CC3CC(CC(C3)C1)C2)OC12CC3CC(CC(C3)C1)C2 | inactive: -0.22% |

| Structure (SMILES) | activation |
| --- | --- |
| O=[N+]([O-])c1ccc(OP2(=O)COCCO2)cc1 (centres undefined) | inactive: 0.202% |
| Cc1cc(-c2cccc3ccccc23)c(C)cn1.O=[N+]([O-])c1cc([N+](=O)[O-])c(O)c([N+](=O)[O-])c1 | inactive: 0.572% |
| Cc1c(C(c2ccc3c(c2)OCO3)c2c(C)n(C)n(-c3ccccc3)c2=O)c(=O)n(-c2ccccc2)n1C.O=[N+]([O-])c1cc([N+](=O)[O-])c(O)c([N+](=O)[O-])c1 | inactive: -0.707% |
| COc1ccc(OP(C)(=O)Nc2cccc(Br)c2)cc1 (centres undefined) | inactive: 0.0225% |
| CN(C)CCOC(=O)C(O)(c1ccccc1)C1CCCCC1 (centres undefined) | inactive: -0.349% |
| COc1ccc(NP(C)(=O)Oc2ccccc2OC)cc1 (centres undefined) | inactive: 1.85% |
| CP(=O)(Nc1ccc2c(c1)OCCO2)Oc1ccccc1 (centres undefined) | inactive: 0.114% |
| Cc1ccccc1NP(C)(=O)Nc1ccccc1C | inactive: -0.178% |
| O=[N+]([O-])c1cc([N+](=O)[O-])c(C(F)(F)F)c([N+](=O)[O-])c1O | inactive: 0.211% |
| CP(=O)(Nc1ccc(SC(F)(F)F)cc1)Oc1ccc(F)cc1 (centres undefined) | inactive: -0.0054% |
| CCOP(C)(=S)SCC(=O)NC(C)(CC)C(=O)O (centres undefined) | inactive: -0.576% |
| O=C(OCCN1CCN(CCOCc2ccccc2)CC1)C(O)(c1ccccc1)c1ccccc1 | inactive: 0.672% |
| CP(=O)(Nc1ccccc1F)Oc1ccccc1 (centres undefined) | inactive: 0.388% |
| CC(C)c1ccc(OP(C)(=O)Nc2ccc(SC(F)(F)F)cc2)cc1 (centres undefined) | inactive: 0.558% |
| Cc1c([N+](=O)[O-])cc([N+](=O)[O-])c(Br)c1[N+](=O)[O-] | inactive: -0.548% |
| CCN(CC)CCCOC(=O)C(O)(c1ccccc1)C1CCCCC1 (centres undefined) | inactive: -0.195% |
| CP(=O)(Nc1ccccc1)Oc1ccc(F)cc1 (centres undefined) | inactive: -0.43% |
| CCCCCOc1ccc(NP(C)(=O)Oc2ccc(Cl)cc2Cl)cc1 (centres undefined) | inactive: -0.695% |
| CCOC(=O)c1ccc(NP(C)(=O)Oc2ccc(F)cc2)cc1 (centres undefined) | inactive: -0.562% |
| COc1ccc(OP(C)(=O)Nc2ccc(SC(F)(F)F)cc2)cc1 (centres undefined) | inactive: -0.204% |
